Values of other authors as cited in patent US20250099481A1, “BCL-2 INHIBITORS” (Newave Pharmaceutical Inc., priority 2022, published 2025).

Protein sequences, listed by entry. Tags and fused reporters are not part of them.
UniProt Q07820, whole entry: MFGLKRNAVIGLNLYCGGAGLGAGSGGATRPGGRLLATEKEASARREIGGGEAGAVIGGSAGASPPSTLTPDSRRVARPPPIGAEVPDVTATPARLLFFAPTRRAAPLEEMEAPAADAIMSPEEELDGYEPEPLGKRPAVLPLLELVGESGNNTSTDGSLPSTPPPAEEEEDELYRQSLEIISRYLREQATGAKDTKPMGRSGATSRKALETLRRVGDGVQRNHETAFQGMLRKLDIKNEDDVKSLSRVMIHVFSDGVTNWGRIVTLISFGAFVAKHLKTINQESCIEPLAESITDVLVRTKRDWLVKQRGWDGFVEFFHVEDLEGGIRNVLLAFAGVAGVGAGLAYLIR

Molecular target: Mcl-1 (Homo sapiens, UniProt Q07820)

ABT-199
activity to Mcl-1: no activity
